# scFv variants of Ab-14 (light chain) against a SARS-CoV-2 spike peptide

Antigen: PDVDLGDISGINAS, a 14-residue peptide of the SARS-CoV-2 spike HR2 region.

Parent: Ab-14, a human scFv built as VH, a (GGGGS)3 linker, VL. Only the CDRs of the light chain vary.
VH: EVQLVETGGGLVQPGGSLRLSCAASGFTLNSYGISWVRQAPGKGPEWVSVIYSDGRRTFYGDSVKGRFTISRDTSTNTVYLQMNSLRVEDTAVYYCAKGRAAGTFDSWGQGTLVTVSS
VL: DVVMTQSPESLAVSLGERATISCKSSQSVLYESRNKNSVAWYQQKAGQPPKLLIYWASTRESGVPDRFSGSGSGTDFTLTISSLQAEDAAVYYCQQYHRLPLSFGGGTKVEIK

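The starting antibody came from a phage panning campaign against this peptide. The variants were designed computationally from a first round of random CDR variants and then made and measured. Several design methods are mixed in this list. The assay is AlphaSeq: two haploid yeast populations carry antibody and antigen on their surface. The frequency of each diploid, read from paired DNA barcodes, reflects how well the two displayed proteins bind. A regression on co-assayed BCL2-family reference pairs converts the normalised counts of each replicate to an apparent Kd. There are six technical replicates.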

The parent's light chain CDRs are KSSQSVLYESRNKNSVA, WASTRES, QQYHRLPLS; each variant's own CDRs replace them letter for letter.
The read-out is the apparent dissociation constant on a log10 scale (nM): the lower, the stronger.
An entry "n.d." has no value in the source: the pair was not observed among the diploids in that replicate. This suggests poor binding but is not conclusive.
Empty control strains, which show no peptide, gave a signal in 4% of pairings with all light chain designs; the median was 2.64 and 95% of these signals were weaker than 1.59. No background was subtracted.
The range of this assay differs from that of the first round, and the authors advise against merging the two.
The authors averaged sequences with at least three values out of six and counted those with two or fewer as poor binders.

| # | CDR-L1 | CDR-L2 | CDR-L3 | log10 Kd (nM) by replicate |
|---|---|---|---|---|
| 1 | KISESWLYEPLNSNSVA | NASTRQM | QQYHRLPLS | -0.06 0.14 -0.08 -0.01 -0.20 0.55 |
| 2 | KSSQYVLYEMRNKNSVA | WASTRES | QQYHRLPLS | n.d. n.d. n.d. n.d. n.d. n.d. |
| 3 | KQSQSVLYESRNKNSVA | DASTRES | YQYHRLPSS | 1.85 0.44 1.33 0.91 1.02 1.75 |
| 4 | KSGQGALYESYNKNSVA | GPSTRES | QQYHRLPLS | 1.58 2.20 1.25 1.26 1.63 2.19 |
| 5 | KSSQPVGYEERNKNSVA | EASTRES | QQYDRLPLS | 0.04 0.10 0.01 -0.32 -0.10 0.27 |
| 6 | KLSQSVLYESRNKNSVA | NAQTRMS | QQYHRLPLS | 0.09 -0.39 -0.22 -0.59 -0.25 -0.19 |
| 7 | KSSQSVLYESRNKNSVA | SASTREL | QQYHRLPLS | 1.31 1.04 1.19 1.36 0.78 1.31 |
| 8 | KLSESVLYESRNKNSVA | EASTRES | QQYHRLPLS | -0.30 -0.37 -0.49 -0.54 -0.47 -0.37 |
| 9 | KFSQSFLYESRNKNSVA | GASTRES | QNYHRLPLS | 0.30 -0.04 -0.10 -0.29 -0.09 0.09 |
| 10 | KLDQKMDQFGQNGNNIA | HGEEFRI | QQYHSLPLS | n.d. 2.58 n.d. n.d. 4.17 2.65 |
| 11 | KSSQSWLYESLNKNSVA | WASTRES | QQYHRLPLS | n.d. n.d. n.d. n.d. n.d. n.d. |
| 12 | KWSWSWLLESRWWNSVA | NASLRES | QQYHRLPLS | 0.65 0.71 0.56 0.38 0.47 0.75 |
| 13 | MISQLMNMGQFAINSVA | QASMRNQ | QQYDRLPLI | n.d. n.d. n.d. 2.17 n.d. n.d. |
| 14 | KSSQSVLYESINKNGVA | GASTRES | QQYHRLPLS | 0.50 0.44 1.12 0.91 1.15 0.96 |
| 15 | KSSCSYLYESENKNSVA | EASQRES | QQYHRLPLS | 0.39 0.51 0.28 0.62 0.15 0.17 |
| 16 | NLSISMLHEQINKHSVA | EVRTREK | QQYDRLPLS | 0.46 1.08 1.09 0.34 0.78 0.86 |
| 17 | IIEQGEWEQEQNQNAMA | DGETRMR | QQYYKLPLV | 0.90 0.87 0.63 0.83 1.10 0.54 |
| 18 | MMGMTVTNQSNEITNVA | DMNERFA | QQYFQLPLS | 0.38 0.10 0.18 -0.20 0.48 0.44 |
| 19 | KSSQSVLYEFINNNSVA | WASTRES | QQYHYLPLS | n.d. n.d. n.d. n.d. n.d. n.d. |
| 20 | GVDHTMYSAQEAPNSIA | NAEQTNI | QQYQRLPLS | 1.55 0.44 0.78 0.64 0.57 0.81 |
| 21 | KISQTFNVGTKMKNSLA | EMSTREF | QDYHRLPLS | 1.77 1.16 0.73 1.47 1.01 1.01 |
| 22 | KSSISYLYESRNCNSVA | EASTRES | QQYHRLPLS | 0.40 0.78 0.78 1.24 0.83 0.81 |
| 23 | KMNMAFQQDLMDEYSVA | DHMLAVT | QQYGRLPLS | n.d. 3.88 2.51 n.d. 3.15 2.20 |
| 24 | KLSMITGHQSTQKNNVA | EMVTREE | QQYNRLPLA | 0.27 0.07 0.01 -0.13 -0.06 0.05 |
| 25 | KFSQSVLYESRTQNSVA | NAVTRET | QQYHRLPLS | 1.00 1.41 0.71 1.15 0.66 1.38 |
| 26 | KLQQSVCYESRNKNSVA | NASTRES | QQYHRLPLS | 0.27 0.22 0.17 0.05 0.21 0.11 |
| 27 | SIYDATGMEQRNKNPIA | DVSTRPS | QQYDRLPLS | 0.51 -0.17 -0.28 0.70 0.46 0.81 |
| 28 | HSSPSVLYESRNKNSVA | NAGTRES | QQYHRLPRS | n.d. n.d. n.d. n.d. n.d. n.d. |
| 29 | KLPQGALYESRNKNSVA | GASTRES | QQYHRLPLS | -0.03 -0.07 -0.21 -0.41 -0.36 -0.11 |
| 30 | KSSVSVLHESRNKNSVA | WASTRES | QQYHRLPLS | n.d. 2.80 n.d. n.d. 2.70 n.d. |
| 31 | KLSQSWLYEQRNKNSVA | NASTRES | QQYHRLPLS | 0.30 0.10 -0.11 -0.04 0.28 0.03 |
| 32 | HSSPSVLYESRNKNSVA | NASTREQ | QQYHRLPLQ | n.d. n.d. n.d. n.d. n.d. n.d. |
| 33 | KSSQSVPYESRNKNSVA | EASTRES | QQYHRLPLS | n.d. n.d. n.d. 0.67 -0.93 0.81 |
| 34 | KSSQSFWYESRNVNSVA | GASTRDS | QQYHRLPLS | 0.46 0.38 0.21 0.12 0.55 0.48 |
| 35 | KLSIMYQHTSREKNNIA | ERSTREE | QQYHHLPLS | 1.27 0.39 0.57 0.39 0.75 0.69 |
| 36 | KISYMGEYFSTNHSSIA | QASTRLQ | QQYHRLPLS | 0.79 0.67 0.13 0.45 0.33 0.41 |
| 37 | KTSQEKLYESRNKNSVA | DASTRES | QQYHRLPLS | -0.07 -0.20 -0.24 -0.32 -0.42 -0.03 |
| 38 | QITNQTAGISNGIDSIA | EETNLTD | QQYNHLPLS | n.d. n.d. n.d. n.d. n.d. n.d. |
| 39 | KMSQSVMMESRNKNSVA | EASTRES | QQYHRLPLS | 0.13 -0.21 -0.15 -0.24 -0.22 -0.06 |
| 40 | ILSQSQLYESRNKNSVA | NASTRES | QQYHRLPLS | 0.12 -0.34 -0.53 -0.03 -0.34 -0.16 |

A selection of 3 entries from above:

{"CDR-L1": "SIYDATGMEQRNKNPIA", "CDR-L2": "DVSTRPS", "CDR-L3": "QQYDRLPLS", "log10 Kd (nM) by replicate": "0.51 -0.17 -0.28 0.70 0.46 0.81"}
{"CDR-L1": "KLQQSVCYESRNKNSVA", "CDR-L2": "NASTRES", "CDR-L3": "QQYHRLPLS", "log10 Kd (nM) by replicate": "0.27 0.22 0.17 0.05 0.21 0.11"}
{"CDR-L1": "KLSESVLYESRNKNSVA", "CDR-L2": "EASTRES", "CDR-L3": "QQYHRLPLS", "log10 Kd (nM) by replicate": "-0.30 -0.37 -0.49 -0.54 -0.47 -0.37"}

Data: MIT Lincoln Laboratory AlphaSeq set, Li et al. 2023, doi:10.1038/s41467-023-39022-2, as distributed in FLAb.